Measured values published in US20250186419A1, “DOSING REGIMENS FOR TREATING PAIN” (VERTEX PHARMACEUTICALS INCORPORATED, priority 2023, published 2025).

Tested on: painful diabetic peripheral neuropathy (DPN)
Test: Randomized, double-blind, active-controlled, dose-ranging, 4-arm study of Compound 1 in painful diabetic peripheral neuropathy (Example 8)
Details: Compound 1 combined dose groups; pregabalin 100 mg tid; 12 weeks
Excerpt: The study population included male and female subjects 18 through 80 years of age, inclusive, with presence of bilateral pain in lower extremities due to DPN for at least 1 year, and weekly average Numeric Pain Rating Scale (NPRS) pain score of ≥4.
Subjects who met eligibility criteria entered a 7-day Run-in Period to establish their baseline Numeric Pain Rating Scale (NPRS) pain score and Daily Sleep Interference Scale (DSIS) score. Subjects with a baseline average NPRS score of ≥4 points with limited variation (SD<25% of mean) were eligible for the 12-week Treatment Period followed by a Safety Follow-up Visit.
Randomization was stratified by sex (female and male) and body mass index (≥30 and <30 kg/m^2). To maintain the blind, all subjects received the same number of tablets once daily (qd) in the morning and the same number of capsules 3 times per day (tid) in a double-dummy design. […]
Daily Sleep Interference Scale (DSIS): Pain frequently interferes with sleep, and sleep is important to quality of life. […] DSIS is commonly used in neuropathic pain studies and is assessed on an 11-point scale. […]
Patient Global Impression of Change (PGIC): The PGIC is commonly used in neuropathic pain studies, and the Initiative on Methods, Measurement, and Pain Assessment in Clinical Trials (IMMPACT) group recommends it as a core outcome measure for chronic pain studies and is thus evaluated in this study.

## CC(C)C[C@H](CN)CC(=O)O [Pregabalin, reference compound]
  Incidence of creatinine clearance decrease (adverse event): 1.9%
